This note sets out measurements from PMC4543658.

Amino acid sequences for entries named in this document (tags omitted). A change or cut given only in a name is not applied to a line headed by its entry.
UniProt Q8T913: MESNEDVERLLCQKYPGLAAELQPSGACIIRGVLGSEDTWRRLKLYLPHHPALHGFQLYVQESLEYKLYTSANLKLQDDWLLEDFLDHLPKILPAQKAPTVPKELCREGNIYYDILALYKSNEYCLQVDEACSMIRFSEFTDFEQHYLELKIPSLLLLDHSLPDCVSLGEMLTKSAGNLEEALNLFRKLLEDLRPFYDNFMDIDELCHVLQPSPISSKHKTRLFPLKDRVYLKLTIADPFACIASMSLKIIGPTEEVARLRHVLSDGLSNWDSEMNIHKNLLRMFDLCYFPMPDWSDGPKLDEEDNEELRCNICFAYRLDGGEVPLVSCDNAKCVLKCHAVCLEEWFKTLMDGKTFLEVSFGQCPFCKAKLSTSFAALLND

The target of this experiment is Drosophila FANCL ELF domain (1-105) (Drosophila melanogaster) (UniProt Q8T913). As to the kind of experiment: ITC; ITC200; 2.5 mM ubiquitin in the syringe, 230 μM ELF domain in the cell; 50 mM Tris pH 8.0, 100 mM NaCl; 30 °C; cell concentrations adjusted to a 1:1 stoichiometric interaction.

In the case of “human ubiquitin (no tag) (from UniProt P0CG48 1-76) (natural protein)”, the Kd (as a rule, the equilibrium constant for the complex coming apart) amounted to 42 µM.
